Reference: PubChem BioAssay AID2129 (The Scripps Research Institute Molecular Screening Center, 2009)
Only a part is listed here, and it is no random draw. Calls of active or inactive are those of the source.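 How the source made its calls: active means inhibition above the mean of all tested compounds plus 3 SD, cutoff set per campaign (cut at about 30% in these data); inactive means the rest.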

Chains of the proteins cited; added tags and fusions are not shown.
UniProt Q07817, whole entry: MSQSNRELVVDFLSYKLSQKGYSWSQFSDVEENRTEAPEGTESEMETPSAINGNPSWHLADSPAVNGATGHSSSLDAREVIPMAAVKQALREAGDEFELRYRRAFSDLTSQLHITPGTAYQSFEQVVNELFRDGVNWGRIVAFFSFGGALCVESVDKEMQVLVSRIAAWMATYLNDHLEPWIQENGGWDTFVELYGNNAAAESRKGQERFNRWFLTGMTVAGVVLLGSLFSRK

These compounds were tested against Bcl-2-like protein 1 (Homo sapiens) (UniProt Q07817) (assay: Bcl-xL/Bim BH3 interaction blockers – biochemical, fluorescence polarization, HTS, primary screen (AID 2129;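 further: 0% = DMSO wells and 100% = unlabeled Bim-BH3 peptide competitor; inhibitors lower millipolarization by displacing the labeled peptide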)). Conditions: GST-Bcl-xL / FITC-Bim BH3 peptide fluorescence polarization; at 10.9 µM; stronger effect = higher value.
With `CN(C)C1(CNC(=O)c2cccc(C#N)c2)CCCCC1` the inhibition was inactive: 0.39%. For `CCCN1CCC(Nc2cc(OC)cc(OC)c2)CC1`, the inhibition was active: 34.9%. `c1ccc(CN2CCC(Nc3ccccc3)CC2)cc1` was tested, and the inhibition was inactive: -0.4%. With `N#Cc1ccc(C(=O)NCC2(N3CCCCC3)CCCCC2)cc1` the inhibition was inactive: -3.35%. `CC(C)(C)OC(=O)N1CCC(N(C(=O)c2ccccc2)c2ccc(Cl)cc2)CC1` was tested, and the inhibition was inactive: 6.29%. In the case of `O=C(OC1CN2CCC1CC2)C1c2ccccc2C=Cc2ccccc21` (stereo unspecified), the inhibition is reported as inactive: 5.01%. `CCc1cc(C(=O)NCC2(N3CCCCC3)CCCCC2)sc1C` was tested, and the inhibition was inactive: 8.65%. For `CCOC(=O)N1CCC(Nc2ccc(C)cc2)CC1`, the inhibition was inactive: 4.36%. In the case of `N/C(=N\O)c1c(N)no[n+]1[O-]`, the inhibition is reported as inactive: 2.09%. In the case of `COc1ccc(C(=O)NCC2(N3CCOCC3)CCCCC2)cc1OC`, the inhibition is reported as inactive: 3.14%. With `O=C(NCC1(N2CCOCC2)CCCCC1)c1cc(Br)ccc1Cl` the inhibition was inactive: 2.62%. For `CN1CCC(Nc2ccc(Cl)cc2)CC1`, the inhibition was inactive: 4.33%. For `CCCOc1ccc(C)cc1CN(CCCl)CCCl`, the inhibition was inactive: 5.5%. For `COc1cccc(C(=O)N(c2cc(C)cc(C)c2)C2CCN(C(=O)OC(C)(C)C)CC2)c1`, the inhibition was inactive: -3.7%. For `COc1cc(OC)cc(C(=O)NCC2(N3CCOCC3)CCCCC2)c1`, the inhibition was inactive: -1.71%. `CCC(CO)(C(=O)OC1CN2CCC1CC2)c1ccccc1` (stereo unspecified) was tested, and the inhibition was inactive: 0.54%. For `O=C(O)C1(Nc2ccccc2)CCN(Cc2ccccc2)CC1`, the inhibition was inactive: -1.17%. `CC(C)(C)OC(=O)N1CCC(Nc2ccccc2)CC1` was tested, and the inhibition was inactive: 3.18%. In the case of `CCCOc1ccc(C(=O)NCC2(N(C)C)CCCCC2)cc1`, the inhibition is reported as inactive: 4.4%. `CN1CCC(Nc2ccc(F)c(Cl)c2)CC1` was tested, and the inhibition was inactive: -0.35%. For `CCOc1ncccc1C(=O)NCC1(N2CCOCC2)CCCCC1`, the inhibition was inactive: 0.54%. With `CN(C)c1ccc(C(=O)NCC2(N3CCCCC3)CCCCC2)cc1` the inhibition was inactive: 2.88%. In the case of `O=C(NCC1(N2CCCCC2)CCCCC1)c1ccco1`, the inhibition is reported as inactive: -0.14%. With `CCN1CCC(Nc2cccc(F)c2)CC1` the inhibition was inactive: -2.77%. In the case of `Fc1ccccc1NC1CCN(Cc2ccccc2)CC1`, the inhibition is reported as inactive: -0.16%. With `Cc1ccc(C(=O)NCC2(N3CCCCC3)CCCCC2)o1` the inhibition was inactive: 5.88%. `COc1cc(OC)cc(C(=O)NCC2(N3CCCCC3)CCCCC2)c1` was tested, and the inhibition was inactive: 1.97%. With `Cc1ccc(OCC(C)C)c(CN(CCCl)CCCl)c1` the inhibition was inactive: 2.31%. For `CCOC(=O)N1CCC(Nc2cccc(C)c2)CC1`, the inhibition was inactive: 2.28%. `COc1ccc(NC2CCN(CCc3ccccc3)CC2)c(OC)c1` was tested, and the inhibition was inactive: 6.95%. `O=C(NCC1(N2CCCCC2)CCCCC1)c1ccc(F)cc1` was tested, and the inhibition was inactive: 0.5%. In the case of `CCOc1ccc(C)cc1CN(CCCl)CCCl`, the inhibition is reported as inactive: 9.58%. For `COc1ccc(Cl)cc1C(=O)NCC1(N2CCOCC2)CCCCC1`, the inhibition was inactive: 1.28%. In the case of `O=C(OC1CN2CCC1CC2)C1c2ccccc2Oc2ccccc21` (stereo unspecified), the inhibition is reported as inactive: 27.4%. For `O=C(NCC1(N2CCCCC2)CCCCC1)c1ccc(Cl)s1`, the inhibition was inactive: -3.15%. `N#CC1(Nc2ccccc2)CCN(Cc2ccccc2)CC1` was tested, and the inhibition was inactive: 3.13%. With `CCOC(=O)N1CCC(Nc2ccc(OC)cc2)CC1` the inhibition was inactive: 8.99%. For `Cc1cc(C)cc(N(C(=O)c2ccccc2)C2CCN(C(=O)OC(C)(C)C)CC2)c1`, the inhibition was inactive: 5.32%. For `O=C(NCC1(N2CCCCC2)CCCCC1)c1ccc(Cl)nc1`, the inhibition was inactive: -15.3%. For `O=C(NCC1(N2CCOCC2)CCCCC1)c1cc2ccccc2o1`, the inhibition was inactive: -3.89%. With `CSc1ccccc1C(=O)NCC1(N2CCCCC2)CCCCC1` the inhibition was inactive: 6.9%. For `CC(C)(C)OC(=O)N1CCC(N(C(=O)c2ccccc2)c2ccc(F)cc2)CC1`, the inhibition was inactive: -0.65%. With `COc1ccc(C(=O)NCC2(N3CCCCC3)CCCCC2)c(OC)c1OC` the inhibition was inactive: 2.05%. `COc1ccc(C(=O)NCC2(N3CCCCC3)CCCCC2)cc1` was tested, and the inhibition was inactive: 0.5%. `O=C(NCC1(N2CCCCC2)CCCCC1)c1cccs1` was tested, and the inhibition was inactive: -7.05%. For `O=C(NCC1(N2CCCCC2)CCCCC1)c1ccc(=O)[nH]c1`, the inhibition was inactive: -1.35%. `O=C(NCC1(N2CCCCC2)CCCCC1)c1cncc(Br)c1` was tested, and the inhibition was inactive: 0.62%. For `CN1CCC(Nc2cccc(F)c2)CC1`, the inhibition was inactive: 3.59%. With `COc1cc(OC)c(C(=O)NCC2(N(C)C)CCCCC2)cc1OC` the inhibition was inactive: 2.76%. With `CC(C)c1ccc(NC2CCN(C(=O)OC(C)(C)C)CC2)cc1` the inhibition was inactive: 3.94%. `CN(C)c1cccc(C(=O)NCC2(N3CCCCC3)CCCCC2)c1` was tested, and the inhibition was inactive: 3.83%. In the case of `COc1ccc(CN(CCCl)CCCl)cc1Cl`, the inhibition is reported as inactive: 1.94%. With `O=C(NCC1(N2CCOCC2)CCCCC1)c1cc(=O)[nH]c2ccccc12` the inhibition was inactive: -4.02%. With `COc1cc(C(=O)NCC2(N3CCCCC3)CCCCC2)ccc1OC(F)F` the inhibition was inactive: -7.86%. For `COc1ccc(NC2CCN(C(=O)OC(C)(C)C)CC2)cc1`, the inhibition was inactive: 12.9%. `CN1CCN(CCOC(=O)C(O)(c2ccccc2)c2ccccc2)CC1` was tested, and the inhibition was inactive: 4.62%. `O=C(NCC1(N2CCCCC2)CCCCC1)c1cccc(C(F)(F)F)c1` was tested, and the inhibition was inactive: 3.03%. In the case of `N#CC1(Nc2ccccc2)CCN(CCc2ccccc2)CC1`, the inhibition is reported as inactive: 7.04%. In the case of `CCN1CCC(Nc2ccc(Cl)cc2)CC1`, the inhibition is reported as inactive: 5.66%. `O=C(NCC1(N2CCCCC2)CCCCC1)c1cccc([N+](=O)[O-])c1` was tested, and the inhibition was inactive: -10.8%. `O=C(NCC1(N2CCCCC2)CCCCC1)c1ccc(OC(F)F)cc1` was tested, and the inhibition was inactive: -4.42%.
